Data from PMC7723054.
Some of the results follow.

B1: hsa-mir-8083 (structured_RNA)
RNA: GGGAACUAGGCAUUACGGUAACGACAAGGGUGUACGAAGUUUCAGCAACUGUGCGGCCGGCCACACCGUCACACCGGGUGCUGAAGCUUCGUGCAC
B2: hsa-mir-5696 (structured_RNA)
RNA: GGGAAUUCGCAUCCCUUGGCACCUGAUCGGUGUACGAAGUUUCAGCUGCCUACUACUGAUGACAUACAAUGUAAGUGCUCAUUUAGGCGGCUGAAGCUUCGUGCAC
B3: hsa-mir-6511b-1_6511b-2_6511a-2_6511a-3_6511a-1_6511a-4 (structured_RNA)
RNA: GGGACACAUAUAGACCGGGUCCAAGUAAGGUGUACGAAGUUUCAGCGACAGGGCAGAGGGUUGCGCCCCCUCGCUGAAGCUUCGUGCAC
B4: NEAT1_ParasoR_ID43 (structured_RNA)
RNA: GGGAAUACACCACUCGUCCUUGUGUGCUGGUGUACGAAGUUUCAGCUGGUCAUAUAUAUGAGUUCUACAGUAGUGAAGUCUGAGAUUUUACUACACCUUCCACUUAUGUGGUCCCACACCAGCUGAAGCUUCGUGCAC
B5: hsa-mir-4516 (structured_RNA)
RNA: GGGAAAGUCGCGGGAUUAUAGUAAGCAUGGUGUACGAAGUUUCAGCGGGCAGGGAGGGCAGGGCAGGCUCUGGGGUGGGGGGUCUGUGAGUCAGCCACGGCUCGCUGAAGCUUCGUGCAC
B6: hsa-let-7c (structured_RNA)
RNA: GGGAACGGGUCAACGGCUAGAUGUCAAAGGUGUACGAAGUUUCAGCAUGGUUUAGAGUUACACCCUGGGAGUUAACUGUGCUGAAGCUUCGUGCAC
B7: hsa-mir-3925 (structured_RNA)
RNA: GGGCAUGAUUGGUCCCCAUGACUAGCAUGGUGUACGAAGUUUCAGCGAGCCUGUCACAUCUCCAGACUCGCUGAAGCUUCGUGCAC
B8: hsa-mir-548q (structured_RNA)
RNA: GGGAAGGCGGUGACCAUGUGUUCGGAAGGGUGUACGAAGUUUCAGCGCGGUUUUUGCCAUUACUUUUCAUUUUUACCAUUAAAAGUAAUGGCAAAAAGCAUGCUGAAGCUUCGUGCAC
B9: hsa-mir-642b (structured_RNA)
RNA: GGGAAAAUGAGCCCUUACCCCUAAAGCCGGUGUACGAAGUUUCAGCGUCUUGAUCCCCCACCCCAAGACGCUGAAGCUUCGUGCAC
B10: hsa-mir-7112 (structured_RNA)
RNA: GGGAAAGUAUCGUGAGCCCUCAAAGCUGGGUGUACGAAGUUUCAGCCCUGCAGGUGAGAGCGGGAACACCUGCAUGCUGAAGCUUCGUGCAC
B11: hsa-mir-449c (structured_RNA)
RNA: GGGAUACGACGGAGCACGGACCUUCUUGGGUGUACGAAGUUUCAGCGCGGCUGUUAAUGAUUUUAACAGUUGCGCUGAAGCUUCGUGCAC

target: U1A (Homo sapiens, UniProt P09012); experiment: FOREST: bead pull-down of RNA structure library v1, barcode microarray; U1A/LIN28A: 20 mM HEPES pH 7.5, 80 mM KCl, 20 mM NaCl, 10% glycerol, 2 mM DTT, 0.1 ug/uL BSA, 4 C; BG4/CIRBP/DHX36: 10 mM Tris-HCl pH 7.5, 100 mM KCl (or LiCl),; high values mean tight binding

Binder | binding signal
B1 | 0.782 z-score
B2 | 0.778 z-score
B3 | 0.778 z-score
B4 | 0.775 z-score
B5 | 0.775 z-score
B6 | 0.772 z-score
B7 | 2.29 z-score
B8 | 0.772 z-score
B9 | 0.766 z-score
B10 | 0.765 z-score
B11 | 0.758 z-score

target: T1, LIN28A (human?, UniProt Q9H9Z2 1-209); experiment: as above
T1 sequence: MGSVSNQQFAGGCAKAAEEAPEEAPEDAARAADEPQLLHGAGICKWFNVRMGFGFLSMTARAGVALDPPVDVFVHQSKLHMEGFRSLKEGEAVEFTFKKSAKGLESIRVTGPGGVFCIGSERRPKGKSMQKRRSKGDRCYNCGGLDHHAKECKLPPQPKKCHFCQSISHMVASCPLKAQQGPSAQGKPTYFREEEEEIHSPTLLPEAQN

Binder | binding signal
B1 | 1.34 z-score
B2 | -2.02 z-score
B3 | 0.706 z-score
B4 | 0.591 z-score
B5 | 0.628 z-score
B6 | 2.22 z-score
B7 | -1.52 z-score
B8 | 0.252 z-score
B9 | -2.04 z-score
B10 | 1.08 z-score
B11 | 0.49 z-score

target: T2, CIRBP (Homo sapiens, UniProt Q14011 1-172); experiment: as above
T2 sequence: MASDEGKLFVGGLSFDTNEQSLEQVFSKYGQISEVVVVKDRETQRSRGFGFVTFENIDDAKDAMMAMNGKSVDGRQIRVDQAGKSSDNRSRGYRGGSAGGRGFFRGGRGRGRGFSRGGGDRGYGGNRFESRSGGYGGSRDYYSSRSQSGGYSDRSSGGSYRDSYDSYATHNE

Binder | binding signal
B1 | 1.36 z-score
B2 | -1.34 z-score
B3 | -0.637 z-score
B4 | -0.759 z-score
B5 | 5.32 z-score
B6 | 1.06 z-score
B7 | -0.857 z-score
B8 | 1.21 z-score
B9 | 0.127 z-score
B10 | 0.0924 z-score
B11 | -0.184 z-score

target: T3, DHX36 (Homo sapiens, UniProt Q9H2U1 1-1008); experiment: as above
T3 sequence: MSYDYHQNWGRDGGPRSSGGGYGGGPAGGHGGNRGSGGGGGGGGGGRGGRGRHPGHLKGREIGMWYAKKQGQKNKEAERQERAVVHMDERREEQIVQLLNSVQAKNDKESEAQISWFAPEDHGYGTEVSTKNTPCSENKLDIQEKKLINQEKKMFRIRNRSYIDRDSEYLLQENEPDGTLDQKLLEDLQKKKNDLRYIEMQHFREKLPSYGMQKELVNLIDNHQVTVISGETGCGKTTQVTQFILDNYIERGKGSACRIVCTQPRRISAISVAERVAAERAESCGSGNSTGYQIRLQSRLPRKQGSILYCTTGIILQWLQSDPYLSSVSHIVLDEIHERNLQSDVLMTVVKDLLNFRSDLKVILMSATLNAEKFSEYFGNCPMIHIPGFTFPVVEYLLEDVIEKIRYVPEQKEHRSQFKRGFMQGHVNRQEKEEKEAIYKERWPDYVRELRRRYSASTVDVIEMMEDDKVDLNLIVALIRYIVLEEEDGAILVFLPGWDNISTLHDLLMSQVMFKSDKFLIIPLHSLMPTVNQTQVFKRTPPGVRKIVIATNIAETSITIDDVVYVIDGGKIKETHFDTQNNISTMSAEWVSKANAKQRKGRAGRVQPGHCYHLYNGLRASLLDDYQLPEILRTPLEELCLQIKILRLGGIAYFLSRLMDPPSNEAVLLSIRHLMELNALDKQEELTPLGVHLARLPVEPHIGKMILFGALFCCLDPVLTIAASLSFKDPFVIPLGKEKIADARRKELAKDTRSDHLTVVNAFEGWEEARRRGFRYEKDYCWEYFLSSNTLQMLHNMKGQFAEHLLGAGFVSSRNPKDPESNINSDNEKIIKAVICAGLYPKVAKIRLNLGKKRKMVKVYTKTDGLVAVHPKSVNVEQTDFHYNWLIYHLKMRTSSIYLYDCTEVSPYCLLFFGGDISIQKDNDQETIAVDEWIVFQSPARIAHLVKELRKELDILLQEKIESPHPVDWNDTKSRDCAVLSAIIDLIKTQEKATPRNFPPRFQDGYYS

Binder | binding signal
B1 | 0.638 z-score
B2 | -1.07 z-score
B3 | 0.52 z-score
B4 | 0.571 z-score
B5 | 5.33 z-score
B6 | 2.07 z-score
B7 | -1.43 z-score
B8 | 1.23 z-score
B9 | -0.334 z-score
B10 | -0.129 z-score
B11 | -0.518 z-score
